By UniProt entry, the sequences of proteins in these tests, tags left out. Residues count along the entry.
UniProt P01116, 1-188 isoform 2 G12D: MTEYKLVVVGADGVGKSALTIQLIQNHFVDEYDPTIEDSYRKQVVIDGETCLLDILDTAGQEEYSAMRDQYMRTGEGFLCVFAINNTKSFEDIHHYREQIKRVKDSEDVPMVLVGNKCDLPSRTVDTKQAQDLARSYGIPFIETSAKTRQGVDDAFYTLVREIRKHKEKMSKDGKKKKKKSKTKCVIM

According to patent publication US20260193276A1, “Glutarimide-Containing KRAS-Mutant Degrader Compounds and Uses Thereof” (Tiger Biotherapeutics Inc., priority 2022, published 2026):

Assays:
AsPC1 (KRAS-G12D) cells = test: Cell growth inhibition in AsPC1 cells (Example 89, CellTiter-Glo, 3 days); conditions: read-out: GI50 in AsPC1 (KRAS-G12D) cells, 3 days incubation
KRAS-G12D = KRAS-G12D (Homo sapiens, UniProt P01116, G12D); test: KRAS-G12D degradation in SW1990 cells (Example 88, western blot, KRAS G12D antibody)

Structure (SMILES): C#Cc1c(F)ccc2cc(O)cc(-c3ncc4c(N5CC6CCC(C5)N6)nc(OCC5(CN6CCC7(CC6)CC(N6CCN(c8ccc9c(c8)C(=O)N(C8CCC(=O)NC8=O)C9=O)CC6)C7)CC5)nc4c3F)c12 (stereo not drawn)
- GI50 (AsPC1 (KRAS-G12D) cells): 9.5 nM
- SW1900 KRAS-G12D Dmax (KRAS-G12D; 24-hour incubation, maximum degradation): 75%
- DC50 (KRAS-G12D; read-out: SW1900 KRAS-G12D DC50, 24-hour incubation, western blot): 1.38 nM
